Entries after “also recorded” stand apart in the source; their conditions may differ.

The test system of this series is T9 gliosarcoma. As to the kind of experiment: Histology of brain/tumor of treated T9 gliosarcoma bearing rats. The series is classed as in vivo, rat (male CDF, Fischer 344). The text has this:
Using length of survival as an endpoint, the efficacy of the two therapeutic regimens was compared. All animals were autopsied at their time of death. A gross inspection was made of the lungs, liver and kidneys, and the brain was removed in toto and fixed in 10% buffered formalin for three days. A single coronal section was cut through the center of the tumor site and both halves were imbedded in paraffin and stained with hematoxylin and eosin for blind histopathologic examination. Median survival rates were calculated for each group, and the data were analyzed nonparametrically with the Wilcoxon rank sum test.
To study acute effects on the tumor some of the intratumoral solution BCNU treated animals (n=12) were sacrificed healthy on days 7, 10 and 14.

Regarding `O=NN(CCCl)C(=O)NCCCl` [BCNU, 1,3-bis(2-chloroethyl)-1-nitrosourea], the “histology, three animals which lived relatively long” value (BCNU treated, 94, 108 and 98 days) is “Two of these histologically presented acute hemorrhage and no tumor; also recorded: the third displayed a large cyst with polymorphonuclear leukocytes and some very unhealthy T9 tumor tissue”. The “histology, animals which lived a normal life span” value (BCNU treated, 600-700 days) is “displayed large cysts always surrounded by dense connective tissue capsules, some containing polymorphonuclear leukocytes; also recorded: no T9 gliosarcoma tumor was found, tumor cell necrosis was usually present as was hemosiderin pigment; also recorded: Some animals also presented with extensive infiltrates of lymphocytes and plasma cells; also recorded: totally eradicated the tumors in animals which lived a normal life span”. Further, the “histology, animals that died during phase 3” value (BCNU treated, days 251-325) was “demonstrated cysts, necrosis, scar tissue, and no T9 gliosarcoma”. The “histology, animals which died during phase one” value (BCNU treated, death at 18-24 days) is “displayed typical large healthy tumors; also recorded: tumor cell necrosis was also observed, usually at top of the tumor while the bottom grew out aggressively; also recorded: Cysts with polymorphonuclear leukocytes and sometimes hemorrhage were found”. Further, the “histology, animals that died during phase 2” value (BCNU treated, death at 25-166 days) is reported as “large tumors containing prominent bands of central necrosis”. In addition, under “intratumoral BCNU formulation, deep into the tumor”, the “necrosis of normal tissue” value was “minimal necrosis of normal tissue was observed”. For the same compound, the “acute effects on the tumor (histology)” value (intratumoral BCNU solution, n=12, sacrificed days 7, 10 and 14, three groups) was “One group displayed tumor destruction at the top, with the majority of the tumor left untouched; also recorded: In a second group most of the tumor was successfully treated, but small amounts of viable tumor remained; also recorded: In a third group the tumor was totally eradicated by the therapy and was replaced with a cyst containing necrotic tumor tissue”. In addition, the “histology, animals which did not live a normal life span” value (single 4 mm deep injection of BCNU solution) is recorded as “did miss a portion of the tumor in most animals which did not live a normal life span”.

Source of the values: US5162115A, “Antineoplastic solution and method for treating neoplasms” (priority 1991, dated 1992).
